Measurements as given in patent publication EP0180500A1, “Thieno and furo[2,3-c]pyrrole derivatives, process for their preparation and medicaments containing them” (LIPHA, LYONNAISE INDUSTRIELLE PHARMACEUTIQUE, priority 1984, dated 1986).

Protein sequences, listed by entry. Tags and fused reporters are not part of them.
UniProt P47747, whole entry: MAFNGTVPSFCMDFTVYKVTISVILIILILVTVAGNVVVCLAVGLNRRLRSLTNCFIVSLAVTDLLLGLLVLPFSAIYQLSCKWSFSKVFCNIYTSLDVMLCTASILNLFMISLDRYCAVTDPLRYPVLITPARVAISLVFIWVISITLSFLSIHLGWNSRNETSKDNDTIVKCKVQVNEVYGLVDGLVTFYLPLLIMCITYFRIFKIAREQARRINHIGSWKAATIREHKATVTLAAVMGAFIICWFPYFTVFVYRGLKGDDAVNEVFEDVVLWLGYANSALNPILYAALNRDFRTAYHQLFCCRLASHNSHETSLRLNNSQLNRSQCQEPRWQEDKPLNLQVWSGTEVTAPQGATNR

Target: récepteurs histaminiques H2 (Cavia porcellus, UniProt P47747)
Experiment: Isolated guinea-pig atrium (histamine chronotropic effect, H2 blockade)

## CN/C(=N/CCSCc1nc[nH]c1C)NC#N [Cimétidine, reference compound]
  Kb: 115 nM
